Measurements reported in publication PMC4491176, “Caenorhabditis elegans is a useful model for anthelmintic discovery” (Nature Communications, 2015).

Sequences of proteins named here, by UniProt entry; tags and fusion partners are left off. A change or cut given only in a name is not applied to a line headed by its entry. Residues count along the entry.
UniProt O62215, whole entry: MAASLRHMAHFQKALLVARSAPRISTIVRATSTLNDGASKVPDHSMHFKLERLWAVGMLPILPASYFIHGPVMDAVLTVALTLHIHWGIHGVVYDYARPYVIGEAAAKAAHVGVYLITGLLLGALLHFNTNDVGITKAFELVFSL
UniProt P41956, whole entry: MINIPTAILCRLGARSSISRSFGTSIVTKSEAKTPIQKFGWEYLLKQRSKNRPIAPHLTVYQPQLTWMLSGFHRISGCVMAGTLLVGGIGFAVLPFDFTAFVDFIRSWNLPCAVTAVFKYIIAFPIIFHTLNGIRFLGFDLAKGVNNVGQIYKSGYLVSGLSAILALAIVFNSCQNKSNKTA
UniProt P41956, whole entry R74K: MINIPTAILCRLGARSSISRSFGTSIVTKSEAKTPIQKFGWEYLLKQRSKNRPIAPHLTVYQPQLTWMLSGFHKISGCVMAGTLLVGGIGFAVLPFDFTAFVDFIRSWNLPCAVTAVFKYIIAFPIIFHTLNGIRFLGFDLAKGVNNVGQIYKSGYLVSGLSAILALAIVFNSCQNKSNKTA
UniProt Q09508, 32-646 limits assumed: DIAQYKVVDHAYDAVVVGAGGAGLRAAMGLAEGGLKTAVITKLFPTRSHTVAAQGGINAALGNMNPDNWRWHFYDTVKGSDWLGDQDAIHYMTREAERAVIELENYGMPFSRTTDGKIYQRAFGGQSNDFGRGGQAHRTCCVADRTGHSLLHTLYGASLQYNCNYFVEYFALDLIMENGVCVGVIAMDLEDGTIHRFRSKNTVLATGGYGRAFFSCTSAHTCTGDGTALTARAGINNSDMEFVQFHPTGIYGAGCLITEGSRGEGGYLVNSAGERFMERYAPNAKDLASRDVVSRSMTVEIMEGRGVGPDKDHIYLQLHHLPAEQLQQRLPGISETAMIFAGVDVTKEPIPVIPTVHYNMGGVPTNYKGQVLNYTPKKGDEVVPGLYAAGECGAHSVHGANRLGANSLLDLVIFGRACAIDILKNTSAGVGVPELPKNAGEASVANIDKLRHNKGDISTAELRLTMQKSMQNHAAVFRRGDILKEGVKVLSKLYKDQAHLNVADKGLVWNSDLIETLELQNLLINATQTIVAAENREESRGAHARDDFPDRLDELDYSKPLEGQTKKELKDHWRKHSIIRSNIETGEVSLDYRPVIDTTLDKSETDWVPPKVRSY
UniProt Q09545, whole entry: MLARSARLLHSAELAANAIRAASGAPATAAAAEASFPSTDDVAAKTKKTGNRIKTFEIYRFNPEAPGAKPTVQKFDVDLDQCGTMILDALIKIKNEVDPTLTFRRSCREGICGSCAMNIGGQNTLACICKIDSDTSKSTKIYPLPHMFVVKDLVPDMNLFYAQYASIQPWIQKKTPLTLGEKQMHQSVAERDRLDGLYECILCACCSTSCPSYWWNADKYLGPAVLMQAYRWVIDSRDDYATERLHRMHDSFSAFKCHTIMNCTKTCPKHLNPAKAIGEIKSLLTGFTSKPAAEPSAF
UniProt Q9CQA3, 31-282 limits assumed: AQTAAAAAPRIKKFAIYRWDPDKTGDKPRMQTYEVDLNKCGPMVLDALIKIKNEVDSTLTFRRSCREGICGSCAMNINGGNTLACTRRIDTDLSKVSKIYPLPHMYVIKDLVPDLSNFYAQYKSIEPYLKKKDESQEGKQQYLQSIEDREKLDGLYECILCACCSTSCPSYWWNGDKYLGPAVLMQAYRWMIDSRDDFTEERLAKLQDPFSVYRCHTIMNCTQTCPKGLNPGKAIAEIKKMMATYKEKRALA
UniProt Q9CXV1, 57-159 limits assumed: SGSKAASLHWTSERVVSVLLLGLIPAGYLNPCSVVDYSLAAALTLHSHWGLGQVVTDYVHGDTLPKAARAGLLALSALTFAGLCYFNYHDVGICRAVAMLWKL
UniProt Q9CZB0, 30-169 limits assumed: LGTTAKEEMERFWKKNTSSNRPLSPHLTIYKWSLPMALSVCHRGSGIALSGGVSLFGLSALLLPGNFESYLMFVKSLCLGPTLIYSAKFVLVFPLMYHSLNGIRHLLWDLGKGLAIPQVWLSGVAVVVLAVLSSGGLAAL
UniProt Q8K2B3, 43-664 partner limits assumed: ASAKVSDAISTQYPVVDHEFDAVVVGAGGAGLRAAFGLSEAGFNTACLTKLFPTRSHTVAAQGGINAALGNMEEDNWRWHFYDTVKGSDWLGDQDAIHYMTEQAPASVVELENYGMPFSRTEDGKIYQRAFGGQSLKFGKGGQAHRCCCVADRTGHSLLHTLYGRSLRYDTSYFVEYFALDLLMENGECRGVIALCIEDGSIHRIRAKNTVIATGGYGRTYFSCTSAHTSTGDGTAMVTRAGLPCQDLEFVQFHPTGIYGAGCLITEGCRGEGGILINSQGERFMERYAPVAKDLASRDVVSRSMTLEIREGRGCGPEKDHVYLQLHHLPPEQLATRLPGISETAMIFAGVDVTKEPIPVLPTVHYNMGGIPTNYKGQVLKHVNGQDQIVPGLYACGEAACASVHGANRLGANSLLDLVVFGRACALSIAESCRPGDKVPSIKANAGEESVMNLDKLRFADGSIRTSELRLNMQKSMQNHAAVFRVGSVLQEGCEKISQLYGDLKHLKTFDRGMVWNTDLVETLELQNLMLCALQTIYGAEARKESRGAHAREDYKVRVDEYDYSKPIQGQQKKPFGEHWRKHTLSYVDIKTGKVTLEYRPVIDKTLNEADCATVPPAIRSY

Assays:
C. elegans N2 = test: 96-well liquid-based dose-response (in vivo LD100), wild-type worms; conditions: lowest concentration with no viable animals in four of four wells, 6 days after 20 L1 worms deposited
Experimental: (§1) The 96-well liquid-based chemical screening assay was adapted from an established RNAi screening protocol. Briefly, saturated HB101 Escherichia coli culture was concentrated 2-fold using NGM (nematode growth media) containing 3 mg ml^−1 NaCl, 2.5 mg ml^−1 peptone, 5 μg ml^−1 cholesterol, 1 mM CaCl2, 1 mM MgSO4 and 25 mM KH2PO4. A total of 40 μl of NGM+HB101 was dispensed into each well of a 96-well plate, and chemicals were pinned into the wells using a pinning tool with a 300 nl slot volume (V&P Scientific). Approximately 20 synchronized first larval-stage (L1) worms, in 10 μl of M9 buffer (see ref. [24] for the recipe), were then added to each well. The synchronized L1s were obtained from an embryo preparation (see ref. [24] for the protocol) performed the previous day. The final concentration of dimethyl sulfoxide (DMSO) in the wells was 0.6% v/v. A dissection microscope was used to visualize the wells either 5 or 6 days post worm deposition and any obvious chemical-induced phenotypes were noted.
(§2) The 96-well liquid-based assay was also used for all follow-up dose-response experiments in this work. These experiments were carried out in quadruplicate, and the total number of worms in each well was counted 6 days after worm deposition.

[1] = target: wild-type C. elegans complex II (Caenorhabditis elegans, UniProt O62215+P41956+Q09508+Q09545); test: Cell-free Complex II functional assay, mitochondria from wild-type (N2) worms; conditions: for IC50: read-out: In vitro Complex II IC50, C. elegans, strain N2, SDHC residue change none; for Decrease of complex II inhibition relative to wact-11: C. elegans N2 complex II IC50 ratio; for IC50 lower than that of wact-11: C. elegans N2 complex II
Mouse complex II = Mouse complex II (Mus musculus, UniProt Q9CQA3+Q9CXV1+Q9CZB0); test: Cell-free Complex II functional assay, mouse liver mitochondria; conditions: read-out: In vitro Complex II IC50; M. musculus, C57Bl/6 liver mitochondria
Experimental: The livers from three 8–10-week-old C57Bl/6 female mice (Charles River) were removed, collected in 1.5 ml microcentrifuge tubes, flash frozen in liquid nitrogen and stored at −80 °C until needed. Just before mitochondria isolation, the livers were weighed, placed into a 10-cm petri dish and 10 ml isolation buffer A was added per gram of liver tissue. The tissue was finely minced with a razor blade, transferred to a glass Dounce homogenizer and homogenized by 10 strokes on ice. The homogenate was centrifuged at 1,000g for 10 min at 4 °C. The supernatant was collected and centrifuged at 1,000g for 10 min at 4 °C. The supernatant was again collected and centrifuged at 16,000g for 10 min at 4 °C. […]
Mitochondrial pellets were thawed on ice and resuspended in 300 μl of cold isolation buffer B. Using the BCA assay, the protein concentration of the mitochondria suspension was determined and was subsequently diluted to a concentration of 0.2 mg ml^−1 with cold isolation buffer B. Complex II enzymatic assays were carried out in 96-well flat bottom plates. […] Absorbance for each well was measured at 600 nm using a SpectraMax Plus 384-well Microplate Reader, combined with SoftmaxPro software at 30-s intervals over a 35-min time period. Absorbance versus time was plotted for each well and enzyme activity was calculated as the slope of the line defined by the points ranging from 4 to 10 min. […]

[2] = system: wact-11-family resistant C. elegans mutants (RP2674, RP2698 and others); test: 96-well liquid-based dose-response (in vivo LD100), wact-11-family resistant mutants; conditions: 6 days
Experimental: as §1, §2

[3] = target: C. elegans complex II with SDHC-1(R74K) missense mutation (Caenorhabditis elegans, UniProt O62215+P41956+Q09508+Q09545, R74K); test: Cell-free Complex II functional assay, mitochondria from wact-11-resistant mutants RP2674 and RP2698
Experimental: HB101 E. coli cells (C. elegans Genetics Center, University of Minnesota) from a 1 l saturated culture were pelleted by centrifugation at 2,500g for 10 min, and then resuspended in 50 ml complete S-medium (see ref. [37] for recipe). In all, 450,000 synchronized first larval-stage worms, in M9 buffer, were added to the S-media/HB101 suspension and were grown to adulthood over 3.5 days at 20 °C with shaking at 200 r.p.m. Worms were collected in 6 × 15 ml conical tubes and washed eight times with M9 buffer. The worms from the six tubes were combined into one 15 ml conical tube, and resuspended in 15 ml M9 buffer. One millilitre aliquots of the worm suspension were distributed to each of the 15 × 1.5 ml Sarstedt microcentrifuge tubes. The worms were pelleted by centrifugation at 800g, and the M9 buffer was aspirated without disrupting the pellet. […]
Mitochondrial pellets were thawed on ice and resuspended in 300 μl of cold isolation buffer B. Using the BCA assay, the protein concentration of the mitochondria suspension was determined and was subsequently diluted to a concentration of 0.2 mg ml^−1 with cold isolation buffer B. Complex II enzymatic assays were carried out in 96-well flat bottom plates. […] Absorbance for each well was measured at 600 nm using a SpectraMax Plus 384-well Microplate Reader, combined with SoftmaxPro software at 30-s intervals over a 35-min time period. […]

Q: With `O=C(NCCSc1ccc(Cl)cc1)c1ccccc1I` as the compound, how does the “In vivo LD100” value (C. elegans N2) read?
A: >120 µM

Q: And the IC50 [1]?
A: 0.129 µM

Q: Which results are given for `O=C(NCCc1ccc(Cl)cc1)c1ccc(C(F)(F)F)cc1`?
A: In vivo LD100 (C. elegans N2): >120 µM; Decrease of complex II inhibition relative to wact-11 [1]: at least 1,300 fold; IC50 [1]: > 10 µM

Q: With `O=C(NCCc1ccc(Cl)cc1Cl)c1ccccc1C(F)(F)F` as the compound, how does the “In vivo LD100” value (C. elegans N2) read?
A: 0.469 µM

Q: What about the IC50 (Mouse complex II) of the same compound?
A: > 10 µM

Q: And the “In vivo LD100” value ([2]; C. elegans strain RP2674 (SDHC R74K))?
A: >120 µM

Q: And the “In vivo LD100” value ([2]; C. elegans strain RP2698 (SDHC R74K))?
A: >120 µM

Q: What about the “IC50 lower than that of wact-11” value [1] of the same compound?
A: over 7 fold

Q: And the IC50 [1]?
A: 0.001 µM

Q: And the IC50 ([3]; read-out: In vitro Complex II IC50, strain RP2674, SDHC R74K)?
A: > 10 µM

Q: And the IC50 ([3]; read-out: In vitro Complex II IC50, strain RP2698, SDHC R74K)?
A: > 10 µM

Q: How did the “In vivo LD100” value (C. elegans N2) turn out when `Cc1ccc(OCCNC(=O)c2ccccc2I)cc1` was run?
A: 7.5 µM

Q: And the IC50 [1]?
A: 0.0077 µM

Q: How did the “In vivo LD100” value (C. elegans N2) turn out when `O=C(NCCc1ccc(Cl)cc1)c1ccccc1Br` was run?
A: 1.875 µM

Q: And the IC50 [1]?
A: 0.0075 µM

Q: How did the “In vivo LD100” value (C. elegans N2) turn out when `O=C(NCCc1ccc(Cl)cc1)c1ccccc1` was run?
A: >120 µM

Q: What about the “Decrease of complex II inhibition relative to wact-11” value [1] of the same compound?
A: at least 86 fold

Q: And the IC50 [1]?
A: 0.633 µM

Q: Which results are given for `O=C(NCCc1ccc(Cl)cc1Cl)c1ccccc1Br`?
A: In vivo LD100 (C. elegans N2): 0.469 µM; IC50 lower than that of wact-11 [1]: over 7 fold; IC50 [1]: 0.001 µM

Q: How did the “In vivo LD100” value (C. elegans N2) turn out when `O=C(NCCOc1ccc(Cl)cc1)c1ccccc1Br` was run?
A: 30 µM

Q: And the IC50 [1]?
A: 0.0078 µM

Q: How did the “In vivo LD100” value (C. elegans N2) turn out when `O=C(NCCc1ccc(Cl)cc1)c1ccccc1F` was run?
A: 60 µM

Q: What about the IC50 [1] of the same compound?
A: 0.17 µM

Q: How did the “In vivo LD100” value (C. elegans N2) turn out when `O=C(NCCc1ccc(F)cc1)c1ccccc1I` was run?
A: 60 µM

Q: What about the IC50 [1] of the same compound?
A: 0.0153 µM

Q: `O=C(NCCc1ccccc1)c1ccccc1C(F)(F)F` was tested. Which “In vivo LD100” value (C. elegans N2) did it give?
A: 60 µM

Q: And the IC50 [1]?
A: 0.0261 µM

Q: Which results are given for `O=C(NCCc1ccc(Cl)cc1)c1ccccc1I`?
A: In vivo LD100 (C. elegans N2): 7.5 µM; IC50 [1]: 0.0058 µM

Where two headings read alike, the source gives them in different places.
